Assay results reported in ChEMBL document CHEMBL1125573 (J Med Chem, 1992).

Chains of the proteins cited; added tags and fusions are not shown. Lines headed by an entry give the natural chain unless they say otherwise; changes in a name come on top.
UniProt P30994: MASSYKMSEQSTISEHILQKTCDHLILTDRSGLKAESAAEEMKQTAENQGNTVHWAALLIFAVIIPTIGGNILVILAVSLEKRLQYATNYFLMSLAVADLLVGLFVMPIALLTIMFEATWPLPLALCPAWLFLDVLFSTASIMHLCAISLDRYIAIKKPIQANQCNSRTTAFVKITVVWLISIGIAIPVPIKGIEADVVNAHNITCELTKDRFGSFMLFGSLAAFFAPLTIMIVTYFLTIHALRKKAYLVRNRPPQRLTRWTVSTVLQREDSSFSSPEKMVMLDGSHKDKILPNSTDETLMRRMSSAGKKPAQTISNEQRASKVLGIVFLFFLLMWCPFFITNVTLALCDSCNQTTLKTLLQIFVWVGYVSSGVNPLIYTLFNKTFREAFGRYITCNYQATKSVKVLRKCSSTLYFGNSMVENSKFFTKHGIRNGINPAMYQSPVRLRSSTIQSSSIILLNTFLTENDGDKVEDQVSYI
UniProt P08909: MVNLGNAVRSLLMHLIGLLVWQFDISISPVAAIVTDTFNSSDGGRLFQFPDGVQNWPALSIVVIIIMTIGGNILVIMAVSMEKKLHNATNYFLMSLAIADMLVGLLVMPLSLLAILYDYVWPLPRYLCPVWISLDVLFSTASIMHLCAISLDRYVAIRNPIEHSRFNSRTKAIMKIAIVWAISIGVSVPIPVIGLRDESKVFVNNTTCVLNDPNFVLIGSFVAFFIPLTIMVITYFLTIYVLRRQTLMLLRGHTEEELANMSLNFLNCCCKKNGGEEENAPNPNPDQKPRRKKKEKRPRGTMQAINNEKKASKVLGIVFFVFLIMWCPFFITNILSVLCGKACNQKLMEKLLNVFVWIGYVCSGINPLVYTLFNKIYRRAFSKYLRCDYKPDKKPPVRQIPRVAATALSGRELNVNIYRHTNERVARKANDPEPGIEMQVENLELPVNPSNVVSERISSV
UniProt P14842: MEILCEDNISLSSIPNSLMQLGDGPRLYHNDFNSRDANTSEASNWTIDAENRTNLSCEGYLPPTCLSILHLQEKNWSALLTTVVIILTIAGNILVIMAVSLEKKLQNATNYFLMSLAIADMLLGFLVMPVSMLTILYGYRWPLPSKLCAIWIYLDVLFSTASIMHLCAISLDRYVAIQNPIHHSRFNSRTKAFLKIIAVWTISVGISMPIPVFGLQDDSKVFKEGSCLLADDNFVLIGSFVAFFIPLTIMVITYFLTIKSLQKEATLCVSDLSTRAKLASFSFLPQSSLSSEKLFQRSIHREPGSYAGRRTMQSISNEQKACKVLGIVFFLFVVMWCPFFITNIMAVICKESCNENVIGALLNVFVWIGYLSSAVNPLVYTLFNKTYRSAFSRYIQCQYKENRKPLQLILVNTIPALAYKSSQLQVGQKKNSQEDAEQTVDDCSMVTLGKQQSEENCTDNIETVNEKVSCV

Target: Serotonin 2 (5-HT2) receptor (Rattus norvegicus, UniProt P30994+P08909+P14842)
Test: The compound was tested in vitro for binding affinity towards 5-hydroxytryptamine 2 receptor by displacing [125]I-LSD radioligand
Assay type: protein assay

O=C(CCCN1CCC2(CC1)C(=O)NCN2c1ccccc1)c1ccc(F)cc1 [SPIPERONE]
Ki: 0.45 nM
